Source: US12337063B2, “Formulation for atropine sulfate rapidly-disintegrating sublingual tablets” (dated 2025)

Assay: pH measurement of alkalizing excipients
[1] = 0.50% excipient dissolved in 2 mL water, n=5
[2] = 1% excipient dissolved in 2 mL water, n=5

Row | Substance | pH Reading [1] | pH Reading (0.50% excipient dissolved in 2 mL water, n=5, listed as Ca Carb) | pH Reading [2] | pH Reading (1% excipient dissolved in 2 mL water, n=5, listed as Ca Carb) | pH Reading (0.50% excipient dissolved in 2 mL water, n=5, listed as Na Bicarb) | pH Reading (1% excipient dissolved in 2 mL water, n=5, listed as Na Bicarb) | pH Reading (1% with AS RDST (incorporated into RDST Formulation 2)) | pH Reading (1% with AS RDST (incorporated into RDST Formulation 2), listed as Na Bicarb) | pH Reading (0.50% excipient dissolved in 2 mL water, n=5, listed as Na Cit) | pH Reading (1% excipient dissolved in 2 mL water, n=5, listed as Na Cit)
1 | calcium carbonate | 6.6 ± 0.1 | 6.6±0.1 | 7.6 ± 0.1 | 7.6±0.1 | – | – | – | – | – | –
2 | sodium bicarbonate | 7.2 ± 0.2 | – | 8.1 ± 0.3 ^§ | – | 7.2±0.2 | 8.1±0.3 | 7.9 ± 0.1 | 7.9±0.1 | – | –
3 | sodium citrate | 6.2 ± 0.3 | – | 7.5 ± 0.1 | – | – | – | – | – | 6.2±0.3 | 7.5±0.1
